Data set [1] deals with N[C@@H](Cc1ccc(O)cc1)C(=O)O. As to the kind of experiment: purified protein, by the assay type. Conditions: other: substrate at its pH optimum (pH 8.5 TAL, pH 9.4 PAL), 35° C., mean of six independent measurements.
Data set [2] relates to N[C@@H](Cc1ccccc1)C(=O)O. As to the kind of experiment: purified protein, by the assay type. The conditions noted are these: other: substrate at its pH optimum (pH 8.5 TAL, pH 9.4 PAL), 35° C., mean of six independent measurements.

By Km is commonly meant the substrate concentration at which the rate is half of its maximum. As a reminder, the kcat is the number of substrate molecules converted per active site and unit of time at saturation. The kcat/Km is the turnover number divided by the Michaelis constant. In the case of “tyrosine ammonia lyase (TAL) from Rhodobacter capsulatus (Rhodobacter capsulatus SB 1003)”, in data set [1], the Km was found to be 15.6 µM, the kcat amounted to 27.7 s⁻¹ and the kcat/Km came to 1.77e+06 M⁻¹ s⁻¹. Moreover, in data set [2], the Km is 1277 µM, the kcat came to 15.1 s⁻¹ and the kcat/Km stood at 11800 M⁻¹ s⁻¹.
